Measurements reported in PubChem BioAssay AID485298 (National Center for Advancing Translational Sciences (NCATS), 2010).
The entries are a selection whose mix differs from that of the whole data set. Some salts or complexes appear as unconnected parts, following the source record. Calls of active or inactive are those of the source. The call rests on the fitted dose curve; in most records, active means well fitted activation curve with a large enough effect; inconclusive means small, poorly fitted or top-dose-only effect; inactive means no such curve, though single readings can be large or run the other way.

experiment: qHTS Assay for Small Molecule Inhibitors of Mitochondrial Division or Activators of Mitochondrial Fusion; further: % of control where 0% means no effect; nearly all actives have a fitted effect of over 45% in size; details: S. cerevisiae fusion-defective mutant growth rescue, CellTiterGlo 48 h; at 46.1 µM (top of the series)
Excerpt: NIH Chemical Genomics Center [NCGC] NIH Molecular Libraries Probe Production centers Network [MLPCN] MLPCN Grant: MH081279-01 Assay Submitter (PI): Jodi M. Nunnari NCGC Assay Overview: The budding yeast S. cerevisiae is a powerful system to study mitochondrial fusion. Unlike other organisms, yeast cells without functional mitochondrial DNA (mtDNA) can be propagated and studied as long as they maintain a mitochondrial compartment and are provided with a fermentable carbon source. When mitochondrial fusion is blocked in yeast, mitochondrial tubules rapidly fragment and division continues unopposed. Under conditions where fusion is compromised in mammalian cells, nearly identical changes in mitochondrial structure have been observed. Thus, these findings indicate that steady state mitochondrial structure in cells is a characteristic and specific indicator of fusion activity. Mounting evidence has pointed to a connection between mitochondrial dynamics and apoptosis in mammalian cells. These studies indicate that in mammalian cells mitochondrial dynamics are more integrated into cellular processes than in yeast cells and have evolved not only to distribute the organelle but also to aid in the regulation of cellular homeostasis. Mitochondrial fusion proteins attenuate apoptosis by inhibiting the release of cytochrome c from mitochondria, in part by controlling cristae structures. Thus, small molecules that inhibit mitochondrial […] may promote apoptosis and potentially act as novel chemotherapeutics and stimulation of apoptosis has become an attractive target of anti-cancer therapies. To identify inhibitors of mitochondrial division, we exploit the growth phenotypes of mitochondrial fusion-defective mutants. The temperature sensitive fusion alleles, such as fzo1-1 and mgm1-5, cause mitochondrial membranes to fragment in cells under non-permissive conditions and cells lose mtDNA, and are unable to grow in the presence of non-fermentable carbon source glycerol. Inhibiting mitochondrial division rescues growth. We have developed and optimized a luminescence cell viability assay in 1536 well format for the identification of inhibitors in the yeast mitochondrial fusion-defective assay.
The yeast glycerol stocks where kindly supplied by the laboratory of Dr. Jodi Nunnari, University of California, Davis. All yeast glycerol stock solutions were stored in single use aliquots at -80C. The CellTiterGlo luminescence reagent, containing luciferase and luciferin, were purchased from Promega, and the reagents were stored according to manufacturer's instructions. The Buffer components for the YPEG yeast growth medium were purchased from Sigma-Aldrich (St. Louis, MO). YPEG growth medium: 1% (w/v) yeast extract, 2% (w/v) Bacto-peptone, 3% Ethanol, 3% glycerol, 0.4mM Tryptophan, 0.36mM Adenine. qHTS Assay Protocol: 1.#Dispense 2.5 ul yeast growth medium per 1536 well plate. 2.#Transfer 23 nl per well of compound to plate. 3.#Dispense 2.5 ul yeast solution at appropriate seeding density per well. 4.#Incubate for 48 hours at 37C. 5.#Dispense 5 ul of CellTiterGlow solution per well. 6.#Incubate at ambient for 10 minutes. 7.#Read using bio-luminescence protocol on Viewlux.

SMILES | growth rescue (activation)
CN1CCC(Nc2ccc(F)c(Cl)c2)CC1 | inactive: -6.32%
CCOc1ncccc1C(=O)NCC1(N2CCOCC2)CCCCC1 | inactive: 1.04%
O=C(O)C1(Nc2ccccc2)CCN(Cc2ccccc2)CC1 | inactive: 7.9%
CC(C)(C)OC(=O)N1CCC(Nc2ccccc2)CC1 | inactive: -1.62%
CCC(CO)(C(=O)OC1CN2CCC1CC2)c1ccccc1 (stereo unspecified) | inactive: 0.735%
COc1cccc(C(=O)N(c2cc(C)cc(C)c2)C2CCN(C(=O)OC(C)(C)C)CC2)c1 | inactive: 2.66%
COc1cc(OC)cc(C(=O)NCC2(N3CCOCC3)CCCCC2)c1 | inactive: -0.478%
CCCOc1ccc(C)cc1CN(CCCl)CCCl | inactive: 3.55%
CN1CCC(Nc2ccc(Cl)cc2)CC1 | inactive: -0.601%
COc1cc(OC)cc(C(=O)NCC2(N3CCCCC3)CCCCC2)c1 | inactive: 19.9%
Fc1ccccc1NC1CCN(Cc2ccccc2)CC1 | inactive: 1.5%
Cc1ccc(C(=O)NCC2(N3CCCCC3)CCCCC2)o1 | inactive: -2.67%
CCN1CCC(Nc2cccc(F)c2)CC1 | inactive: -2.99%
CN(C)c1ccc(C(=O)NCC2(N3CCCCC3)CCCCC2)cc1 | inactive: -12.9%
O=C(NCC1(N2CCCCC2)CCCCC1)c1ccco1 | inactive: -2.61%
CC(C)(C)OC(=O)N1CCC(N(C(=O)c2ccccc2)c2ccc(Cl)cc2)CC1 | inactive: -15.3%
N#Cc1ccc(C(=O)NCC2(N3CCCCC3)CCCCC2)cc1 | inactive: 1.4%
CCOC(=O)C(CC)C1=NC(C)(C)Cc2ccccc21.O=[N+]([O-])c1cc([N+](=O)[O-])c(O)c([N+](=O)[O-])c1 (stereo unspecified) | inactive: 3.68%
CCCN1CCC(Nc2cc(OC)cc(OC)c2)CC1 | inactive: -1.63%
c1ccc(CN2CCC(Nc3ccccc3)CC2)cc1 | inactive: 0.674%
CN(C)C1(CNC(=O)c2cccc(C#N)c2)CCCCC1 | inactive: 2.53%
O=C(NCC1(N2CCOCC2)CCCCC1)c1cc(Br)ccc1Cl | inactive: 4.96%
COc1ccc(C(=O)NCC2(N3CCOCC3)CCCCC2)cc1OC | inactive: -32.4%
N/C(=N\O)c1c(N)no[n+]1[O-] | inactive: -1.95%

SMILES | growth rescue (activation)
CCOC(=O)N1CCC(Nc2ccc(C)cc2)CC1 | inactive: -0.774%
O=C(O)c1cccc(Nc2c([N+](=O)[O-])cc([N+](=O)[O-])cc2[N+](=O)[O-])c1 | inactive: 3.71%
CCc1cc(C(=O)NCC2(N3CCCCC3)CCCCC2)sc1C | inactive: -5.96%
O=C(OC1CN2CCC1CC2)C1c2ccccc2C=Cc2ccccc21 (stereo unspecified) | inactive: -6.84%
CN(C)c1cccc(C(=O)NCC2(N3CCCCC3)CCCCC2)c1 | inactive: 2.48%
O=[N+]([O-])c1cc([N+](=O)[O-])c(OC2CCCCC2O)c([N+](=O)[O-])c1 (stereo unspecified) | inactive: -0.543%
COc1ccc(CN(CCCl)CCCl)cc1Cl | inactive: 12.3%
CC(C)c1ccc(NC2CCN(C(=O)OC(C)(C)C)CC2)cc1 | inactive: 2.99%
COc1cc(OC)c(C(=O)NCC2(N(C)C)CCCCC2)cc1OC | inactive: -6.07%
O=C(NCC1(N2CCCCC2)CCCCC1)c1cncc(Br)c1 | inactive: -5.94%
COc1ccc2c(c1O)-c1c(O)c(OC)cc3c1[C@H](C2)[N+](C)(C)CC3.O=[N+]([O-])c1cc([N+](=O)[O-])c([O-])c([N+](=O)[O-])c1[O-] | inactive: -1.1%
O=C(OC1CN2CCC1CC2)c1ccc([N+](=O)[O-])cc1 (stereo unspecified) | inactive: -2.84%
CCCOc1ccc(C(=O)NCC2(N(C)C)CCCCC2)cc1OC | inactive: -10.4%
O=C(NCC1(N2CCCCC2)CCCCC1)c1ccc(OC(F)F)cc1 | inactive: -3.56%
O=C(NCC1(N2CCCCC2)CCCCC1)c1cccc([N+](=O)[O-])c1 | inactive: 8.89%
CSc1ccc(C(=O)NCC2(N3CCOCC3)CCCCC2)cc1 | inactive: -6.7%
N#CC1(Nc2ccccc2)CCN(CCc2ccccc2)CC1 | inactive: -0.847%
CCN1CCC(Nc2ccc(Cl)cc2)CC1 | inactive: -1.46%
O=C(NCC1(N2CCCCC2)CCCCC1)c1cccc(C(F)(F)F)c1 | inactive: -10%
O=[N+]([O-])c1cc([N+](=O)[O-])c(NCC2CCS(=O)(=O)C2)c([N+](=O)[O-])c1 (stereo unspecified) | inactive: -8.35%
COc1ccc(NC2CCN(C(=O)OC(C)(C)C)CC2)cc1 | inactive: 10.3%
CC(C)c1ccc(C(=O)NCC2(N3CCOCC3)CCCCC2)cc1 | inactive: 4.24%
CN1CCN(CCOC(=O)C(O)(c2ccccc2)c2ccccc2)CC1 | inactive: -5.13%
O=C(NCC1(N2CCOCC2)CCCCC1)c1cc(=O)[nH]c2ccccc12 | inactive: 1.37%

SMILES | growth rescue (activation)
COc1cc(C(=O)NCC2(N3CCCCC3)CCCCC2)ccc1OC(F)F | inactive: -2.12%
CCOc1ccc(C)cc1CN(CCCl)CCCl | inactive: 3.62%
CCOC(=O)N1CCC(Nc2ccc(F)cc2)CC1 | inactive: 1.92%
COc1ccc(NC2CCN(CCc3ccccc3)CC2)c(OC)c1 | inactive: -1.68%
CCCCOc1ccc(C(=O)NCC2(N3CCOCC3)CCCCC2)cc1 | inactive: 8.49%
O=C(NCC1(N2CCCCC2)CCCCC1)c1ccc(F)cc1 | inactive: -0.265%
Cc1ccc(OCC(C)C)c(CN(CCCl)CCCl)c1 | inactive: -1.58%
CCOC(=O)N1CCC(Nc2cccc(C)c2)CC1 | inactive: 0.475%
COc1cc(C(=O)NCC2(N(C)C)CCCCC2)ccc1OC(F)F | inactive: -6.28%
O=C(NCC1(N2CCCCC2)CCCCC1)c1cccs1 | inactive: -1.23%
O=C(NCC1(N2CCCCC2)CCCCC1)c1ccc(=O)[nH]c1 | inactive: -1.93%
COc1ccc(C(=O)NCC2(N3CCCCC3)CCCCC2)c(OC)c1OC | inactive: -1.68%
CC(C)(C)OC(=O)N1CCC(N(C(=O)c2ccccc2)c2ccc(F)cc2)CC1 | inactive: -1.89%
COc1ccc(C(=O)NCC2(N3CCCCC3)CCCCC2)cc1 | inactive: -8.38%
CSc1ccccc1C(=O)NCC1(N2CCCCC2)CCCCC1 | inactive: -1.66%
O=C(NCC1(N2CCOCC2)CCCCC1)c1cc2ccccc2o1 | inactive: 0.198%
Cc1cc(C)cc(N(C(=O)c2ccccc2)C2CCN(C(=O)OC(C)(C)C)CC2)c1 | inactive: -10.8%
O=C(NCC1(N2CCCCC2)CCCCC1)c1ccc(Cl)nc1 | inactive: -0.481%
CCOC(=O)N1CCC(Nc2ccc(OC)cc2)CC1 | inactive: -3.86%
COc1ccc(Cl)cc1C(=O)NCC1(N2CCOCC2)CCCCC1 | inactive: 11.5%
O=C(NCC1(N2CCCCC2)CCCCC1)c1ccc(Cl)s1 | inactive: 0.344%
N#CC1(Nc2ccccc2)CCN(Cc2ccccc2)CC1 | inactive: -1.21%
O=C(OC1CN2CCC1CC2)C1c2ccccc2Oc2ccccc21 (stereo unspecified) | inactive: -8.56%
